The values below come from PubChem BioAssay AID588579 (National Center for Advancing Translational Sciences (NCATS), 2011).

By UniProt entry, the sequences of proteins in these tests, tags left out.
UniProt Q9UBT6, whole entry: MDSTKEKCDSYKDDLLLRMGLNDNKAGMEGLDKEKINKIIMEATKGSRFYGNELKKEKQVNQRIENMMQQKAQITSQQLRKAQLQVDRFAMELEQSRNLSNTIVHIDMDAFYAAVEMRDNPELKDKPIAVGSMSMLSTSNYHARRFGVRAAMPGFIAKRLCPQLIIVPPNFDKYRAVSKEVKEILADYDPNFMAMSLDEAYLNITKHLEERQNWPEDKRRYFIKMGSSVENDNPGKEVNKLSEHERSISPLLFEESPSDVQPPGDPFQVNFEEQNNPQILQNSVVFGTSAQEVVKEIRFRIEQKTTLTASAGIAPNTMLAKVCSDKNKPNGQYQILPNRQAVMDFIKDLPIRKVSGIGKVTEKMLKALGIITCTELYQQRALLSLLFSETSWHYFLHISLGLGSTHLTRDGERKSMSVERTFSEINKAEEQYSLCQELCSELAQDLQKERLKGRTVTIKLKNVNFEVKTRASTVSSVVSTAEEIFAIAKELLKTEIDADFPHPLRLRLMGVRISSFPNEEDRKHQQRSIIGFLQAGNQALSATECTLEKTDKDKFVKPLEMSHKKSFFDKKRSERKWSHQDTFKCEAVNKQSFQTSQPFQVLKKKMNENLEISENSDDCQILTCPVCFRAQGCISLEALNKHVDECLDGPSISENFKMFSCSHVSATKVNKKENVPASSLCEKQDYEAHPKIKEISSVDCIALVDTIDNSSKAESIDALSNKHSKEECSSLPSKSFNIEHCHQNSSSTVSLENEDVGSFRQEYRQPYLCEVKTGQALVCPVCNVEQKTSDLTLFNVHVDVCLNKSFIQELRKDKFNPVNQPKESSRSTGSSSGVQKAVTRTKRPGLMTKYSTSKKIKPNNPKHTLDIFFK

The entries are a selection whose mix differs from that of the whole data set. Records with an inconclusive call do not appear. Activity calls are given as the source filed them. The call rests on the fitted dose curve; in most records, active means well fitted inhibition curve with a large enough effect; inconclusive means small, poorly fitted or top-dose-only effect, or another doubt; inactive means no such curve, though single readings can be large or run the other way.
On the % scale 0 is the no-effect control and ±100 the full control effect.

This experiment deals with DNA polymerase kappa (Homo sapiens) (UniProt Q9UBT6). Briefly: qHTS for Inhibitors of Polymerase Kappa. The settings on record: purified Pol kappa, fluorescent DNA synthesis assay, 10 min; at 107 µM (top of the series) unless noted. As for the experimental part: The processing and repair of DNA interstrand crosslinks (ICL) in eukaryotic cells are extremely complex, potentially involving multiple DNA repair and damage tolerance pathways, including homologous recombination, nucleotide excision repair, translesion synthesis (TLS), and cell cycle checkpoints.
To that end, in a collaboration between the Oregon Health & Science University and the NIH Chemical Genomics Center a 1536-well high-throughput screen was developed. This fluorescent screen was assayed against the NIH Molecular Libraries Small Molecule Repository (MLSMR) to discover inhibitors of Pol Kappa.
NIH Chemical Genomics Center [NCGC]
NIH Molecular Libraries Probe Centers Network [MLPCN]
Assay Submitter (PI): Stephen Lloyd, Oregon Health & Science University
Three microliters of reagents (buffer in column 3 and 4 as negative control and 10 nM Pol kappa in columns 1, 2, and 5-48) were dispensed into a 1536-well black solid-bottom plate. Compounds (23 nL) were transferred via Kalypsys pin tool equipped with 1536-pin array. The plates were then incubated for 15 min at room temperature, and 1 uL substrate (50 nM final concentration) were then added to start the reaction and kinetically read twice at 0 min and 10 min on the Viewlux reader
(In general: In qHTS, concentration-response curves come from the screen itself.)
Regarding `CCN(CC)CCCOC(=O)C(O)(c1ccccc1)c1ccccc1`, the activity, negative = inhibition was inactive: -11.7%.
Under `O=[N+]([O-])c1ccc(-c2cc([N+](=O)[O-])c(O)c([N+](=O)[O-])c2)cc1` stands inactive: -12.9%; under `CN(C)C(=O)c1cc([N+](=O)[O-])cc2c1-c1c(cc([N+](=O)[O-])cc1[N+](=O)[O-])C2=O`, inactive: -3.54%.
Under `CS(=O)(=O)c1cc([N+](=O)[O-])c2no[n+]([O-])c2c1` stands inactive: -29%.
Then `Cc1ccc(NCCc2c([N+](=O)[O-])cc([N+](=O)[O-])cc2[N+](=O)[O-])cc1`, with inactive: -11.5%; and `CN1CCCCC1COC(=O)C1(O)c2ccccc2CCc2ccccc21` (configuration not stated), with inactive: -10.7%.
With `O=[N+]([O-])c1ncn(CCn2cnc([N+](=O)[O-])n2)n1`, the activity, negative = inhibition is inactive: 6.99%.
Take `O=[N+]([O-])c1ccc(OP2(=O)COCCO2)cc1` (configuration not stated): the activity, negative = inhibition is inactive: 4.46%.
Then `C(Cc1nn[nH]n1)Cc1nn[nH]n1`, with inactive: -8.85%.
Regarding `CN(C)CCOC(=O)C(O)(c1ccccc1)C1CCCCC1` (configuration not stated), the activity, negative = inhibition was inactive: -12.4%.
Then `CCN(CCCl)Cc1ccccc1C`, with inactive: -12.5% [at 60.1 µM]; and `c1nnnn1CCn1cnnn1`, with inactive: -12.5%.
Then `O=C(OCCN1CCN(CCOCc2ccccc2)CC1)C(O)(c1ccccc1)c1ccccc1`, with inactive: -6.51%.
Under `CCN(CC)CCCOC(=O)C(O)(c1ccccc1)C1CCCCC1` (configuration not stated) stands inactive: -2.68%; under `O=c1c2cc([N+](=O)[O-])ccc2[nH]c2c([N+](=O)[O-])cc([N+](=O)[O-])cc12`, inactive: -17.5%.
Take `CCNC(=S)/N=C(\N)N[N+](=O)[O-]`: the activity, negative = inhibition was inactive: 5.36%.
Then `O=[N+]([O-])c1cc([N+](=O)[O-])c2nc[nH]c2c1`, with inactive: -13.3%; and `Nc1c(O)cc([N+](=O)[O-])cc1[N+](=O)[O-]`, with inactive: -29.8%.
Under `CCN(N=Nc1nonc1N)c1nonc1N` stands inactive: -19.3%; under `Nc1cc(N)c2nonc2c1[N+](=O)[O-]`, inactive: -11.6%; under `CN(C)CCOC(=O)C(O)(c1ccccc1)C1CCCC1` (configuration not stated), inactive: 2.84%.
On to `CC(C)=N/N=C(\N)N[N+](=O)[O-]`, for which the activity, negative = inhibition is inactive: -2.42%.
Under `CCN(CC)CC(O)COC(=O)C(O)(c1ccccc1)C1CCCCC1` (configuration not stated) stands inactive: -22.1%.
Then `O=C(OCCCN1CCCC1)C(O)(c1ccccc1)C1CCCCC1` (configuration not stated), with inactive: -0.7%; and `O=[N+]([O-])c1cc([N+](=O)[O-])c(CCNc2ccccc2)c([N+](=O)[O-])c1`, with inactive: -28.2%; and `CCc1nc2c(n1)c1c(non1O)c1c2no[n+]1[O-]`, with inactive: -34.5%.
On to `O=[N+]([O-])c1ncn(CCn2ncnc2[N+](=O)[O-])n1`, for which the activity, negative = inhibition is inactive: -10.1%.
